Common to all, as to type: cell-based
Assay [1] addresses T1, P-selectin (Homo sapiens, UniProt P16109).
T1 sequence (P16109 42-830): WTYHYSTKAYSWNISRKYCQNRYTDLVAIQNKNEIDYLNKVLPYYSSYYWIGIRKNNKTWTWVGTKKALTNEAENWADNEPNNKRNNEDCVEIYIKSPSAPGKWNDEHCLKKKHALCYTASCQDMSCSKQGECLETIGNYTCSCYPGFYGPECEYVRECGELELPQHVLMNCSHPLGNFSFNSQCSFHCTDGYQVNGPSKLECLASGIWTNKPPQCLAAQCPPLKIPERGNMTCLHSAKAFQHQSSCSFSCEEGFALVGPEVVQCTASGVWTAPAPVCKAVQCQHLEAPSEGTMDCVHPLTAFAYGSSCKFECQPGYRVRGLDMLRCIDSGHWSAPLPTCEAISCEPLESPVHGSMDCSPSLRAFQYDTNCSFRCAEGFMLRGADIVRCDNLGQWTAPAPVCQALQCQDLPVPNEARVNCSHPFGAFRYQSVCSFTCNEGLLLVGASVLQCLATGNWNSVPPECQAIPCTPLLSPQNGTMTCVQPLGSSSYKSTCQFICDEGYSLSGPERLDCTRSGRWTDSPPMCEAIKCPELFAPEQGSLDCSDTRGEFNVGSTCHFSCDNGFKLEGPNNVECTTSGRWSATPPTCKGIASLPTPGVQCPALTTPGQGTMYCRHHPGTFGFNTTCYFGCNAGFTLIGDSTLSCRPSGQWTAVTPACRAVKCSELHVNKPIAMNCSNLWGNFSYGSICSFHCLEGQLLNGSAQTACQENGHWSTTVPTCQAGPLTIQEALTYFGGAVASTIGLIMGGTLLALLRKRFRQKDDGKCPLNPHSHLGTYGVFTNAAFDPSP
As to the kind of experiment: Cell rolling assay with undiluted human blood, P-selectin coated device. The settings on record: fresh solution of 1000 μg/ml; heparinated whole human blood; HCRIVc device.

Assay [2] addresses T2, E-selectin (Homo sapiens, UniProt P16581).
T2 sequence (P16581 22-610): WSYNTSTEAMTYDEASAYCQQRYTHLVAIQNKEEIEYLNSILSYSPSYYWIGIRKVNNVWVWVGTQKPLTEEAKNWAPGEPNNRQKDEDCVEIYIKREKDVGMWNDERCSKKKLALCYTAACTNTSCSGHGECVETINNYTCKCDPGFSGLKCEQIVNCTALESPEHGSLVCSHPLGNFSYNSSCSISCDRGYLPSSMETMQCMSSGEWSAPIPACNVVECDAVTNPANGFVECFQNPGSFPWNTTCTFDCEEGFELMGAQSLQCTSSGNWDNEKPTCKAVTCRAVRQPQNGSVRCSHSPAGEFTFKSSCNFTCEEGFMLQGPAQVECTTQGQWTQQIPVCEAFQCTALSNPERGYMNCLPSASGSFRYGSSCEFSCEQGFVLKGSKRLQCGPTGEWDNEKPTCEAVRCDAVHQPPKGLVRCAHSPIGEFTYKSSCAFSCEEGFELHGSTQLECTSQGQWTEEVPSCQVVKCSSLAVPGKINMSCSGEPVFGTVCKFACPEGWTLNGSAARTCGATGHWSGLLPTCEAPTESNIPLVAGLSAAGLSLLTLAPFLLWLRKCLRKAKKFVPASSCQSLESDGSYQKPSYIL
As to the kind of experiment: Cell rolling assay with undiluted human blood, E-selectin coated device. Particulars: fresh solution of 1000 μg/ml; heparinated whole human blood; HCRIVc device. How it is done:
Undiluted whole human blood was used in the cell rolling assay described in Example VII above.
This device was previously coated either P-selectin or E-selectin as described above. 50 μl heparinated whole human blood (1 mg/ml heparin was added to the blood) was introduced into the first reservoir of the “Y” shape device shown in FIG. 12. The human blood was moved from the reservoir into the channel by a syringe pump at optimum flow rate for the device (see Table II) and the main flow channel, about 1-2 cm from intersection of “Y”, was observed under the microscope for 15 minutes.
50 μl of a mixture of inhibitor and heparinated blood was placed into the second reservoir and introduced into the channel for 3-10 minutes. The length of time required to inhibit the rolling of the leukocytes in the whole blood depended upon the inhibitor studied.

In assay [3] the target is T2, E-selectin. As to the kind of experiment: Cell rolling of neutrophils on E-selectin coated microchip. The settings on record: fresh solution of 1000 μg/ml. How it is done: In preparation for cell rolling, the channels were coated with the desired selectin by methods similar to those set forth in Example VII.
To study cell rolling, two reservoirs leading to one channel were filled with cells. The contents of both the first and second reservoir (cells only) were drawn into the channel and cell rolling was observed.
A second HCRIVa microchip was coated with 20 μg/ml E-selectin as described in Example VII and incubated for two hours. Isolated human neutrophils were moved through the rolling microchip with a flow rate of 10 μl/min. (approx. 800/cm shear rate=40 dynes/cm^2 shear force). […] In the first run the anti-E-selectin antibody was added to the right reservoir at approximately 1:54:42 and in the second run, the anti-E-selectin antibody was added to the right reservoir at approximately 0:39:30.

Regarding sialyl Lewis^x, the “inhibition of leukocyte rolling in whole blood in the presence of P-selectin” value in assay [1] is “inhibited leukocyte rolling instantaneously”. For the same substance, the “inhibition of leukocyte rolling in whole blood in the presence of E-selectin” value in assay [2] is given as “inhibited leukocyte rolling instantaneously”. The “inhibition of neutrophil rolling in the presence of E-selectin” value in assay [3] is “inhibited rolling instantaneously”.

(Values after US6900021B1, “Microfluidic system and methods of use” (The University of Alberta, priority 1997, dated 2005).)
